Source: patent US20100286027A1, “ANTI-BACTERIAL COMPOSITIONS” (priority 2008, published 2010)

Tested on: L. monocytogenes
Test: Bacterial growth inhibition (FIG. 15)
Assay type: cell-based, Listeria monocytogenes
Conditions: FIG. 15 Panel C
Source text: Nod1 inhibited E. coli growth (Panel B) and L. monocytogenes growth was inhibited by Nod1, Nod2, Nod2 3020insC and CIAS1 (Panel C).

Substance: CIAS1: LRR protein named only in the FIG. 15 legend
- L. monocytogenes growth: inhibited
